Measured values reported in US6569867B2, “Polyketide derivatives” (Kosan Biosciences, Inc., priority 1999, dated 2003).

Target: calcineurin
Assay: Calcineurin phosphatase inhibition assay (FKBP-compound complex)
Format: biochemical
Conditions: 15 nM calcineurin, 30 nM calmodulin, 1 uM phospho-RII peptide, 30° C.
Procedure: The catalytic subunit of protein kinase A was used to transfer the labeled phosphate from [γ-^32P]ATP to […] of the RII peptide. […] Fractions were collected and monitored by scintillation counting. […] The columns were prepared by resuspending the resin in water such that there was one volume of water above each volume of settled resin. The slurry (1 mL) was then pipetted into each column, followed by 10 mL of water. The bed volume was verified, then each column was washed with 1 mL 1 N NaOH, 2 mL 1 N HCl, and 4 mL water. Quenched reaction mixtures were applied to the columns, washed twice with 750 uL of water and the eluate was collected directly into scintillation vials. Scintiverse BD (15 mL) was added to each vial, and ^32PO4 was quantitated by scintillation counting. […] Following a 30 minute preincubation, reactions were initiated by addition of the phospho-RII peptide substrate to 1 uM and incubated at 30° C. Aliquots were removed at 3 and 35 minutes, quenched, and PO4 release was measured as described above.

CC[C@@H]1/C=C(\C)C[C@H](C)C[C@H](OC)[C@H]2O[C@@](O)(C(=O)C(=O)N3CCCC[C@H]3C(=O)O[C@H](/C(C)=C/[C@@H]3CC[C@@H](O)[C@H](OC)C3)[C@H](C)[C@@H](O)CC1=O)[C@H](C)C[C@@H]2OC [FK-520, ascomycin, reference compound]
Ki: 49 nM
